For test [1], the system named is PBMC. As to the kind of experiment: Release of IL-6 by PBMC after stimulation with Herceptin without/with HER2/neu-positive tumour cells (HCT8). It is filed as cell-based, human. On the procedure: (§1) FIGS. 17 to 18 show graphic representations of the results of the release of various cytokines in healthy test subjects by PBMC (at a concentration of 10^6 cells/ml) after stimulation with the monoclonal monospecific antibody Herceptin (AK) (at a concentration of 1 mg/ml) without and in the presence of HER2/neu-positive tumour cells (HCT8) (at a concentration of 5×10^4 cells/ml). On the y-axes the concentration of the respective cytokine in pg/ml has been plotted. On the x-axes the respective stimulation assays of the PBMC have been plotted. […] The values of unstimulated PBMC by way of control have likewise been plotted (“PBMC”).
(§2) After the stimulation the determination of the concentrations of the cytokines IL-6, IL-10, TNF-α and IFN-γ was undertaken in the supernatant on plates with 24 recesses in each instance by means of an ELISA. In each instance duplicate measurements were carried out. The ELISAs were undertaken by means of standardised kits produced by R&D Systems, in accordance with the manufacturer's instructions.

Test [2] deals with PBMC. As to the kind of experiment: Release of TNF-α by PBMC after stimulation with Herceptin without/with HER2/neu-positive tumour cells (HCT8). To be noted: Herceptin 1 mg/ml with HCT8 and dexamethasone (FIG. 18). The class given is cell-based, human. On the procedure: as §1, §2

On to “Herceptin: monoclonal monospecific antibody Herceptin, tested with HER2/neu-positive tumour cells”, for which the “effects on the release of various cytokines compared with the anti-EpCAM x anti-CD3 antibody” value in the test on PBMC [1] (FIGS. 17 to 18 versus FIGS. 11 to 16) is “substantially the same effects”. In addition, the “specific action (release of IL-6 at the site of antigen binding)” value with PBMC [1] (Herceptin 1 mg/ml with HCT8 and dexamethasone (FIG. 17)) is reported as “strong specific action”. Moreover, in the test with PBMC [2], the “specific action (release of TNF-α at the site of antigen binding)” value is given as “very strong specific action”.

The values above are taken from US10071158B2, “Combination of the application of antibodies for immunostimulation together with glucocorticoids” (Lindis Biotech GmbH, priority 2005, dated 2018).
